Our source for the Ki values is patent US20030232839A1, “Treatment of sleeping disorders using CNS sleep target modulators” (Hypnion, Inc., priority 2002, published 2003).

Chains of the proteins cited; added tags and fusions are not shown.
UniProt P14842, whole entry: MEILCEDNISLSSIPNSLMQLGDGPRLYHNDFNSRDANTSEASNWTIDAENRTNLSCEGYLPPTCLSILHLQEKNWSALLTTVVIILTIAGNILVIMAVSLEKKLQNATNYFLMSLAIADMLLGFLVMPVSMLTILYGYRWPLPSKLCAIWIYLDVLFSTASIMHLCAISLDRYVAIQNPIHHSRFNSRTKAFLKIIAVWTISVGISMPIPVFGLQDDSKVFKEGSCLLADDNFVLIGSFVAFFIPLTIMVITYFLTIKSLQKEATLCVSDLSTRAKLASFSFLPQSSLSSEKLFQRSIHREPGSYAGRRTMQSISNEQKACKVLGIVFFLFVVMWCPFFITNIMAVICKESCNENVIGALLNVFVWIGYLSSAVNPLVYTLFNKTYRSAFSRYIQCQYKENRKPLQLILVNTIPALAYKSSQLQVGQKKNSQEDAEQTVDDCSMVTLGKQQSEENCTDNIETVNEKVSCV
UniProt P28223, whole entry: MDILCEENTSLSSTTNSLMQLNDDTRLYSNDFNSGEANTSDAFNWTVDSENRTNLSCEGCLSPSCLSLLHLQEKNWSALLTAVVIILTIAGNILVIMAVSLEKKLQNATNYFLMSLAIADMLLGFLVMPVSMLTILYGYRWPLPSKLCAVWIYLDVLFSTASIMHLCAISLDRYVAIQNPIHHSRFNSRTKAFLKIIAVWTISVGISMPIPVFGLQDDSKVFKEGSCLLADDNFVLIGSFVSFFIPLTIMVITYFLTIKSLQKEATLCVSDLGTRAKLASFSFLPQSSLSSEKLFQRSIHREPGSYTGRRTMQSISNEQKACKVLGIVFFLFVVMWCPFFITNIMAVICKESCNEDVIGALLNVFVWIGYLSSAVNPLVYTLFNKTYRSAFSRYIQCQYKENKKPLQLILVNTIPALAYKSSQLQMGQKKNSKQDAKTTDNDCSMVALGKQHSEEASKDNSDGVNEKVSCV

For assay [1], the target named is rat 5-HT2A receptor (Rattus norvegicus, UniProt P14842). The assay can be described thus: 5-HT2A binding study, rat receptor. The settings on record: read-out: 5HT-2a Ki, Rat.
In assay [2] the target is human 5-HT2A receptor (Homo sapiens, UniProt P28223). The experiment in a line: 5-HT2A binding study, human receptor. Conditions: read-out: 5HT-2a Ki, Human.

pKi: −log10 of the molar value.

With `O=C(OC1CCCC1)C1CN(CCCn2nc3ccccn3c2=O)CCN1c1cccc(Cl)c1` (stereo not drawn) [HY-2725], the pKi (usually the Ki on a negative log10 scale, so that one unit is a factor of ten) in assay [1] is 7.73.
In the case of `CC(C)OC(=O)C1CN(CCCn2nc3ccccn3c2=O)CCN1c1cccc(Cl)c1` (stereo not drawn) [HY-2650], the pKi is 7.30 in assay [1] and 5.68 in assay [2].
